Target: BRD4 BD2 (Homo sapiens (Human), UniProt O60885)
Experiment: FP competitive binding assay using Cpd. No. 350 as the probe

For COc1cc2c(cc1-c1c(C)noc1C)[nH]c1nc(C)nc(-c3cc(C(=O)NC4CCN(C5COC5)CC4)cc(C(C)(C)C)c3)c12 [Cpd. No. 322], which Ki is on record?
The Ki was 7.4 nM.
